Test results from patent US20020161002A1, “Use of catecholamine reuptake inhibitors to enhance memory” (priority 2001, published 2002).

Tested on: rats
Assay: Activity level tests (10 minute session)
Details: 2 mg/kg (200 standard units); 10 minute period one hour after injection; FIGS. 10-13

For C[C@H](N)Cc1ccccc1 [S-(+)amphetamine], the “activity levels (total distance, total movement, rest time, rearing) versus saline control” value was “higher levels of activity on all of the activity tests”.
